Bioassay records (PubChem BioAssay)
Hits are enriched below; roughly 0.91% of the tested compounds scored in any of these assays.
C2C12 statin – suppressors of simvastatin-induced myotoxicity in C2C12 myotubes; ATP luminescence, 48 h; scaled: DMSO 0, geranylgeraniol control 100; rescue of ATP level, % at 7.49 µM; 330,000 tested, 0.78% active; AID 602340;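 active means mean ATP rescue above about 67%, or every replicate alone reaching that limit, limit read from the data, passing the limit was not always enough; inconclusive means no clear call, values can overlap the other calls; inactive means mean under the limit and some replicate under it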;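 further: myotubes were challenged with 10 µM simvastatin during compound exposure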
iPSC survival up – increases survival of single human iPS cells | hiPSC single-cell survival, ATPlite luminescence; 100% = ROCK inhibitor wells, 0% = DMSO | survival enhancement, % at 20 µM | 360,000 tested, 0.044% active | AID 602274; in the data active means survival enhancement above about 18%;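 further: cells exposed to compounds for 16 hours before the ATP read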
PGC1a acetyl inh – modulators of PGC1a acetylation; 350,000 tested, 0.17% active; AID 651687; U2OS PGC1a acetylation, AlphaScreen anti-acetyl-lysine; with virally co-expressed GCN5 acetyltransferase; inhibition, % at 15.6 µM;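 active means every replicate shows inhibition of at least 40%; inconclusive means mean inhibition at least 40% but some replicate below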
Yeast UUG start-1 – modulators of start codon recognition fidelity in yeast; S. cerevisiae UUG-firefly luciferase reporter, luminescence/redox ratio; activity score, % at 18.7 µM; 0.13% of 350,000 active;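 active = replicate mean at a twofold rise or more, about +100% in these data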;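 also: firefly luciferase made from a UUG start codon reports start codon fidelity; reporter light over untreated wells divided by growth signal over untreated wells; some hits fall short of that in this replicate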
FN deposit inh – fibronectin deposition inhibition; inhibition, % at 12.6 µM; AH1F fibroblasts, Alexa488-fibronectin deposition fluorescence, overnight; 350,000 tested, 0.086% active;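 active means mean inhibition across replicates of 30% or more, regardless of how many single replicates reach that level; inconclusive means mean under 30% yet at least half of replicates reach 30%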
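Assay system: AH1F fibroblast monolayer, labelled fibronectin deposition. Amount: 10000 cells per well. Also added: labelled fibronectin 24 nM. Compound: single-point pinned compound. Incubation: cell attachment 1 h, compound and FN exposure overnight. Detection: fluorescence after three HBSS washes, excitation 485 nm, emission 525 nm. Read-out: inhibition of fibronectin deposition signal.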
Yeast UUG start-2 – yeast start codon fidelity modulation | shares compounds with Yeast UUG start-1 | S. cerevisiae UUG-start firefly luciferase, luminescence, 4 h; 100% means double the DMSO signal | activation, % at 38 µM | 540 tested, under 10 active;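 active means signal increase whose fitted curve reaches an absolute level of 40 at a concentration under 10 µM; inactive means activity opposite to the expected increase, or the rest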
Hits are given with their value; . = inactive; ? = inconclusive; / = not tested or not shown.

SMILES | C2C12 statin | iPSC survival up | PGC1a acetyl inh | Yeast UUG start-1 | FN deposit inh | others
O=C(Cc1ccccn1)N1CCCCN2[C@@H](CO)[C@H](c3ccc(C#Cc4ccccc4)cc3)[C@@H]2C1 | / | / | . | . | /
COc1cccc(-c2ccc3c(c2)C2c4cnnn4-c4ccccc4C(=O)N2CC3)c1 (centres undefined) | / | / | / | / | .
O=C1C(=O)c2ccccc2-c2ccccc21 | . | . | . | . | 56
O=C(O)[C@@H]1[C@@H](CO)[C@@H]2Cn3c(ccc(-c4ccccc4)c3=O)[C@H]1N2S(=O)(=O)c1ccccc1F | . | / | / | / | /
O=C1C2CCCN2C(c2cccnc2)N1c1nccs1 (centres undefined) | 155 | . | . | . | .
CN1C(=O)C(C2c3ccccc3C(=O)N2Cc2ccccc2)C(=O)N(C)C1=O (centres undefined) | 108 | . | . | . | /
C#CCNc1ccncc1S(=O)(=O)NC(=O)NC(C)C | 128 | . | . | . | /
Fc1ccc2nc(-c3ccc(CN4CCC(n5nnc6ccccc65)CC4)cc3)c(-c3ccccc3)nc2c1 | / | / | / | / | .
COC(=O)[C@H]1[C@H](CO)[C@H]2Cn3c(ccc(-c4ccc(F)cc4)c3=O)[C@@H]1N2C(C)=O | . | / | / | / | /
CN(C)CC(C(=O)Cc1ccccc1)c1ccccc1 (centres undefined) | . | . | . | . | 32
COc1cccc(CN2CC3(C2)[C@H](c2ccccc2)[C@H](CO)N3C(=O)Cc2ccccc2)c1 | / | / | . | / | .
O=P(Nc1ccccc1)(Nc1ccccc1)Oc1cccc(Cl)c1 | 97 | . | . | . | /
O=P(Nc1ccccc1)(Nc1ccccc1)Oc1ccccc1 | / | . | / | / | .
O=C1/C(=C\c2ccccc2)C2OCC=C3CN4CCC56c7ccccc7N1C5C2C3CC46 (centres undefined) | 137 | . | . | . | .
CC[C@H](C)[C@@H]1NC(=O)CNC(=O)c2csc(n2)[C@H](C(C)(C)O)OC(=O)C(C)(C)[C@H](CCCC(C)(Cl)Cl)OC(=O)c2csc1n2 | . | . | 60 | . | 48
COc1ccc(C#Cc2ccc([C@H]3[C@H](CO)N4CCCCN(C(=O)Cc5ccncc5)C[C@@H]34)cc2)cc1 | / | / | . | . | /
CN1/C(=C\C=Nc2ccccc2)C(C)(C)c2ccccc21 | 85 | . | . | . | .
O=c1[nH]c2ccccc2n1C1CCN(C(CCc2ccccc2)c2nnnn2Cc2ccccc2)CC1 (centres undefined) | . | . | 103 | . | 41
C[C@H]1CCC[C@@H](O)CCC/C=C/c2cc(O)cc(O)c2C(=O)O1 | ? | . | / | . | .
CC1CCC/C=C/C2CC(O)CC2C(O)/C=C/C(=O)O1 (centres undefined) | . | . | 73 | . | .
C[C@H]1CCC/C=C/C2C[C@H](O)CC2[C@H](O)/C=C/C(=O)O1 (some centres undefined) | . | . | 72 | . | /
COc1ccccc1CN1[C@H](CO)[C@@H](c2ccccc2)C12CN(C(=O)Cc1ccccc1)C2 | / | / | . | / | .
Cc1ccc(C[n+]2c(-c3ccc(C)cc3)cc(-c3ccc(C)cc3)cc2-c2ccc(C)cc2)cc1 | . | . | 67 | . | /
CC(=O)N1C2CN(C)CC1C2c1ccc(Br)cc1 (centres undefined) | / | / | / | / | .
COC(=O)[C@H]1[C@H](CO)[C@H]2Cn3c(ccc(-c4ccccc4)c3=O)[C@@H]1N2CCc1ccccc1 | . | / | / | . | /
SMILES | C2C12 statin | iPSC survival up | PGC1a acetyl inh | Yeast UUG start-1 | FN deposit inh | others
CCC1CN2CCc3cc(OC)c(OC)cc3C2CC1CC1NCCc2c1[nH]c1ccc(O)cc21 (centres undefined) | / | . | 70 | / | .
COc1ccc2c(c1OC)CN1CCc3cc4c(cc3[C@H]1C2)OCO4 | . | . | / | . | /
C=CCN1[C@@H]2CN(C(=O)NC(C)C)C[C@H]1C2c1ccccc1 (some centres undefined) | / | / | / | / | .
O=C(N/N=C/c1c(O)n(-c2ccccc2)c(=S)[nH]c1=O)c1ccccc1 | / | . | . | 182 | . | Yeast UUG start-2=.
CN1C2CN(CC(F)(F)F)CC1C2c1ccc(Br)cc1 (centres undefined) | / | / | / | / | .
COc1ccccc1CN1CCCC(C(=O)c2ccccc2OC)C1 (centres undefined) | . | . | . | active | . | Yeast UUG start-2=.
O=C(Cc1ccccn1)N1CCCCN2[C@H](CO)[C@H](c3ccc(C#Cc4ccccc4)cc3)[C@H]2C1 | / | / | . | . | /
CC(=O)c1cccc(OCC(O)CN2CC=C(c3ccccc3)CC2)c1 (centres undefined) | . | . | . | . | .
Cc1cccc(OCC(O)CN2CC2)c1 (centres undefined) | . | . | . | 143 | . | Yeast UUG start-2=.
